# According to patent US20190352268A1, “CANNABINOID RECEPTOR MEDIATING COMPOUNDS” (The USA, as represented by the Secretary, Department of …, priority 2015, published 2019):
# Experiment: Tissue levels (brain and plasma) after administration to mice
# Conditions: mouse, in vivo, 10 mg/kg
smiles,measurement,value
"C/C(N)=N\C(=N/S(=O)(=O)c1ccc(Cl)cc1)N1CC(c2ccccc2)C(c2ccc(Cl)cc2)=N1 (racemic) [Compound 2, rac-N-(1-aminoethylidene)-3-(4-chlorophenyl)-N-((4-chlorophenyl)sulfonyl)-4-phenyl-4,5-dihydro-1H-pyrazole-1-carboximidamide]",Kp at 1 h,0.03
